Results: ChEMBL document CHEMBL4825662 (J Med Chem, 2021)

Test: Intrinsic clearance in Beagle dog liver microsomes preincubated followed by NADPH addition and measured up to 45 mins by LC-MS/MS analysis
Assay type: ADME, Canis lupus familiaris, Microsome

For `NCc1ccc2c(c1)nc(CN1C(=O)C3(CC3)c3ccc(F)cc31)n2CCCC(F)(F)F` [SISUNATOVIR], the intrinsic clearance was 2.6 µL/min.
